From publication PMC7704689 (Bioorganic & medicinal chemistry letters, 2020)

Columns and labels:
NOD/SCID mice = conditions: 5 mg/kg IP every other day, three times per week, 24 days
[1] = tested on: mice infected with Plasmodium berghei; conditions: orally 3 mg/kg/day (QD), four consecutive days, P. berghei infected mice; cited from earlier work

In the case of Brusatol [reference compound], the “mice survived (of 4 per group)” value (NOD/SCID mice) is listed as “three” and the mice that died [1] is listed as “four out of five”.
